Laboratory results from patent publication US5204327A, “Treatment of cerebral edema with ANP pharmaceutical compositions” (Ashi Kasei Kogyo Kabushiki Kaisha, priority 1988, dated 1993).

Tests used:
[1] = system: vasogenic cerebral edema caused by cold injury; assay: Effect on experimental vasogenic cerebral edema (investigation of administration time); format: in vivo, male Crj:CD (SD) rats; settings: for Water content of injured cerebral hemisphere (the mean ± standard error): peptide 100 μg/kg, glycerol solution 10 ml/kg, 24 hours after injury
Description: Using 212 male Crj:CD (SD) rats weighing 300 to 400 g, model animals of vasogenic cerebral edema caused by cold injury were prepared according to the method of Naruse et al. (Brain and Nerve, 33 (6): 569-575 (1981).
Peptide (II) obtained in Reference Example 1 was diluted with a physiological saline so that the peptide concentration became […]. The solution containing the peptide was continuously administered to a predetermined number of rats through the tail vein thereof in an amount of 3 ml per kg of body weight in 90 min so that the total dose of the administered peptide became 100 μg per kg of body weight. Thus, there were obtained six peptide (II)-administered groups.
As a control (solvent), 3 ml per kg of body, weight of the physiological saline was administered to a predetermined number of rats in substantially the same manner as mentioned above, to thereby obtain six physiological saline-administered groups.
As a control for the peptide, an aqueous 10% w/v glycerol solution containing 5% w/v fructose and 0.9% w/v sodium chloride was administered to a predetermined number of rats in substantially the same manner as mentioned above so that the total volume of the administered solution became 10 ml per kg of body weight, to thereby obtain six glycerol-administered groups.
24 hours after the rats were subjected to injury, rats were exsanguinated under ether anesthesia to kill them. Then, cerebra were extracted from the killed rats and each of the cerebra was individually divided into two cerebral hemispheres, namely, a hemisphere having ischemic part and a hemisphere having no ischemic part. The water content of each of the hemispheres was measured in substantially the same manner as in Example 1. In Table 3, the mean and the standard error of the water content of a brain tissue are shown together with the number of rats (n) subjected to experiment in each group.

rats = assay: Acute toxicity in rats; format: in vivo, Crj:CD (SD) rats; settings: single i.v. 0.5, 1.5 and 5.0 mg/kg
Description: Peptide (II) having a purity of 98.3% which was obtained in Reference Example 1 was dissolved in a physiological saline to prepare three preparations having peptide (II) concentrations of 0.1 mg/ml, 0.3 mg/ml and 1.0 mg/ml, respectively. As a control, the physiological saline was used.
88 Crj:CD (SD) rats of 4 weeks old (including 44 male rats and 44 female rats) were purchased from Charles River Japan, Inc., Japan. 40 Rats of each sex (males weighing 116.3 to 138.0 g and females 114.4 to 130.2 g) which were healthy and in good conditions in respect of both the clinical signs and the body weight gain during the observation period for quarantine and acclimation (male: 6 days, female: 8 days) were selected from the purchased rats and used for the following experiment. The rats were divided at random into four groups each consisting of 10 male rats and 10 female rats. Three of the four groups are used for the treatment with peptide (II).
(§1) Each of the above-prepared three test drug solutions containing peptide (II) at concentrations of 0.1 mg/ml, 0.3 mg/ml and 1.0 mg/ml, respectively, was individually administered at one time to the rats of the three groups at a dosage of 5 ml/kg of body weight. That is, the peptide was administered to the rats of the three groups at dosages of 0.5 mg/kg, 1.5 mg/kg and 5.0 mg/kg of body weight, respectively. To the rats of the remaining group, physiological saline was administered as a control at a dosage of 5 ml/kg of body weight. The administration of each of the test drug solutions and the physiological saline was conducted through the tail vein of each rat at an administration rate of 1 ml/min.
The results were recorded.
The amounts of the food supplied and the food remaining were measured twice a week by means of a balance, and the food consumption per day per animal was calculated.
The body weight of each animal was measured three times a week.
The animals were exsanguinated under ether anesthesia on the next day of the two-week observation period. Then, various organs and tissues of the animals were observed by gross autopsy.

cynomolgus monkeys = assay: Acute toxicity in cynomolgus monkeys; format: in vivo; settings: single i.v. 0.5, 1.5 and 5.0 mg/kg
Description: Peptide (II) having a purity of 98.3% which was obtained in Reference Example 1 was dissolved in a physiological saline to prepare three preparations 1, having peptide (II) concentrations of 0.1 mg/ml, 0.3 mg/ml and 1.0 mg/ml, respectively. As a control, the physiological saline was used.
Approximately 3 to 6 year-old cynomolgus monkeys of both sexes were purchased from American Charles River Research Primates, Ltd., U.S.A. The animals were bred for approximately 6 months and then observed one week during quarantine and acclimation. From the purchased monkeys, 6 male monkeys and 6 female monkeys (males weighing 2.31 to 4.22 kg and females weighing 2.45 to 2.66 kg) which were healthy and in good condition in respect of both the clinical signs and the body weight gain were selected from the purchased monkeys and used for the following experiment.
The selected monkeys were divided at random into three groups each consisting of two males and two females.
as §1, with “the monkeys” for “the rats”, “the median antebrachial” for “the tail”, “each monkey” for “each rat”, “of 10” for “of 1”
The amounts of the food supplied and the food remaining were measured daily by means of a balance, and the food consumption per animal was calculated.
The body weight of each animal was measured by means of a balance at a time between 2 p.m. and 4 p.m. daily.
The animals were exsanguinated under sodium pentobarbital anesthesia on the day after the two-week observation period. Then, various organs and tissues of the animals were observed by gross autopsy.
The weights of various organs of the animals were measured by means of an electronic balance.

[2] = gross autopsy after two-week observation

Structure (SMILES): CC[C@H](C)[C@@H]1NC(=O)[C@H](CCCNC(=N)N)NC(=O)[C@H](CC(=O)O)NC(=O)[C@H]([C@@H](C)CC)NC(=O)[C@H](CCCNC(=N)N)NC(=O)CNC(=O)CNC(=O)[C@H](Cc2ccccc2)NC(=O)[C@@H](NC(=O)[C@H](CO)NC(=O)[C@H](CO)NC(=O)[C@H](CCCNC(=N)N)NC(=O)[C@H](CCCNC(=N)N)NC(=O)[C@H](CC(C)C)NC(=O)[C@@H](N)CO)CSSC[C@@H](C(=O)N[C@@H](CC(N)=O)C(=O)N[C@@H](CO)C(=O)N[C@@H](Cc2ccccc2)C(=O)N[C@@H](CCCNC(=N)N)C(=O)N[C@@H](Cc2ccc(O)cc2)C(=O)O)NC(=O)CNC(=O)[C@H](CC(C)C)NC(=O)CNC(=O)[C@H](CO)NC(=O)[C@H](CCC(N)=O)NC(=O)[C@H](C)NC(=O)CNC1=O [Peptide (II)]
- increase in water content of a cerebral hemisphere, compared to physiological saline-administered groups ([1]; administered 6 hours and 22 hours after the making of cold injury): not significantly inhibited
- increase in water content of the injured cerebral hemisphere, compared to physiological saline-administered groups ([1]; administered just before, during, just after or three hours after the making of cold injury): significantly inhibited
- Water content of injured cerebral hemisphere (the mean ± standard error) ([1]; administration 3 hours after the making of cold injury): 80.49 ± 0.18
- Water content of injured cerebral hemisphere (the mean ± standard error) ([1]; administration 6 hours after the making of cold injury): 80.85 ± 0.13
- Water content of injured cerebral hemisphere (the mean ± standard error) ([1]; administration 22 hours after the making of cold injury): 80.66 ± 0.17
- Water content of injured cerebral hemisphere (the mean ± standard error) ([1]; administration during the making of cold injury): 80.44 ± 0.09
- Water content of injured cerebral hemisphere (the mean ± standard error) ([1]; administration just after the making of cold injury): 80.76 ± 0.07
- Water content of injured cerebral hemisphere (the mean ± standard error) ([1]; administration just before the making of cold injury): 80.78 ± 0.12
- Patho-anatomical examination (rats; [2]): No remarkable change
- Change in body weight (rats; two-week observation): No remarkable change
- Clinical signs (rats; two-week observation): No remarkable change
- Clinical signs: death of animals (rats; two-week observation): No dead animal
- Food consumption (rats; two-week observation): No remarkable change
- Organ weight (cynomolgus monkeys; after two-week observation): No remarkable change
- Patho-anatomical examination (cynomolgus monkeys; [2]): No remarkable change
- Change in body weight (cynomolgus monkeys; two-week observation): No remarkable change
- Clinical signs (cynomolgus monkeys; two-week observation): No remarkable change
- Clinical signs: death of animals (cynomolgus monkeys; two-week observation): No dead animal
- Food consumption (cynomolgus monkeys; two-week observation): No remarkable change
